Source: patent publication US5023271A, “Pharmaceutical microemulsions” (priority 1985, dated 1991)

Assay: Stability of tocopherol acetate in human serum
Details: heparin treated human serum

CC(=O)Oc1c(C)c(C)c2c(c1C)CCC(C)(CCC[C@H](C)CCC[C@H](C)CCCC(C)C)O2 (stereo partly drawn) [tocopherol acetate, α-tocopherol (dl) acetate]
ratio of α-tocopherol to tocopherol acetate / hydrolysis: The results were the same
